From patent publication US11912703B2, “6-azaindole compounds” (BRISTOL-MYERS SQUIBB COMPANY, priority 2017, dated 2024)

Protein sequences, listed by entry. Tags and fused reporters are not part of them. Residues count along the entry.
UniProt Q9NR97, 27-1041 limits assumed: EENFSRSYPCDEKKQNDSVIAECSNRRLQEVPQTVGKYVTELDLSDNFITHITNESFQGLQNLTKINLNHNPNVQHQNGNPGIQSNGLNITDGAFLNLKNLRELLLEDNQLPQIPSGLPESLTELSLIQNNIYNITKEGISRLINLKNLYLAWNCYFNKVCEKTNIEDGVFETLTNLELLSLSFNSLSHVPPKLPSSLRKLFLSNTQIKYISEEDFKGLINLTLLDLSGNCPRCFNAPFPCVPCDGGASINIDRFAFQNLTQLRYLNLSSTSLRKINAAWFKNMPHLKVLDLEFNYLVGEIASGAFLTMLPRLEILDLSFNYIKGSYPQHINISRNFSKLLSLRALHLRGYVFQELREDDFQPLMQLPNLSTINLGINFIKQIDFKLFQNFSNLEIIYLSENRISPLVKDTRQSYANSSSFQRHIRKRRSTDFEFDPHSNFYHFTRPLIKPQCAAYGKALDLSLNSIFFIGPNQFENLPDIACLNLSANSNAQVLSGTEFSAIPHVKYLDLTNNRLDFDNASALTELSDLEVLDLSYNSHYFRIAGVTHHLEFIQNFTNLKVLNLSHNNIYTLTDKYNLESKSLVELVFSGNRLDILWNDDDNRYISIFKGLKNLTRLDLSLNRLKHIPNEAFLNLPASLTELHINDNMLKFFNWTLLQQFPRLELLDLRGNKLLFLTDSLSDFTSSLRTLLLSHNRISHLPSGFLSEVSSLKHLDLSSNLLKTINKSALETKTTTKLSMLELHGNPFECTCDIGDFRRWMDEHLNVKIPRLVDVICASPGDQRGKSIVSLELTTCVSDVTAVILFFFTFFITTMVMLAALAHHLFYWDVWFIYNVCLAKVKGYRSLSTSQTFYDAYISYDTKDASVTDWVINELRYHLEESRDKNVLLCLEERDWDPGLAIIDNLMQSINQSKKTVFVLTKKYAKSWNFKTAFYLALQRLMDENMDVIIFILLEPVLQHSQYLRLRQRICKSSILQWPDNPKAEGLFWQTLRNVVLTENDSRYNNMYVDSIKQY
UniProt Q9NR96, 26-1032 limits assumed: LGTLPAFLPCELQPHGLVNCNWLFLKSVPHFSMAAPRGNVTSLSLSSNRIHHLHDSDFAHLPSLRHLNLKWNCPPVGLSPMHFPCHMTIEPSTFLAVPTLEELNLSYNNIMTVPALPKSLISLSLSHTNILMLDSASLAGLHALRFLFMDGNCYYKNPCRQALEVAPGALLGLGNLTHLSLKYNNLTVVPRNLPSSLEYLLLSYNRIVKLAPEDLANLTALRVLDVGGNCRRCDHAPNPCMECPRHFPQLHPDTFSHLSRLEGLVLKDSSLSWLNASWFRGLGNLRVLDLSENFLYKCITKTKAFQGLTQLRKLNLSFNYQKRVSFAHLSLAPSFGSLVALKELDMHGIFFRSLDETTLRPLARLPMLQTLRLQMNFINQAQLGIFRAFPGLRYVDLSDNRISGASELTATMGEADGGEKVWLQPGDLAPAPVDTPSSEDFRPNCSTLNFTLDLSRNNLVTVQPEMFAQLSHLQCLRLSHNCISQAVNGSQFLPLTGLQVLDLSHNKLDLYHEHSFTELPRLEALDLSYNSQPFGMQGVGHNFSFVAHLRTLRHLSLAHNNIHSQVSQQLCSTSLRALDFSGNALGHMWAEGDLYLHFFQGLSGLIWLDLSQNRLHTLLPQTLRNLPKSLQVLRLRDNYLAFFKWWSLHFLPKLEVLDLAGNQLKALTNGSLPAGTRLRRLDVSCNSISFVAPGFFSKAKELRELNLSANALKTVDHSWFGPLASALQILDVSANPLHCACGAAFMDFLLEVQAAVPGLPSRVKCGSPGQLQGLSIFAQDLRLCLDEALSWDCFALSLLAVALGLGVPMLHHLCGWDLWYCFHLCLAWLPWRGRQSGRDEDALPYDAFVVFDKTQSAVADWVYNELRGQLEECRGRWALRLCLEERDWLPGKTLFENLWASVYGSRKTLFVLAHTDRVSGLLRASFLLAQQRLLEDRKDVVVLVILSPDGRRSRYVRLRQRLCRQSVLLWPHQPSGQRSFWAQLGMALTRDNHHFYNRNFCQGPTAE
UniProt Q9NYK1, 27-1049 limits assumed: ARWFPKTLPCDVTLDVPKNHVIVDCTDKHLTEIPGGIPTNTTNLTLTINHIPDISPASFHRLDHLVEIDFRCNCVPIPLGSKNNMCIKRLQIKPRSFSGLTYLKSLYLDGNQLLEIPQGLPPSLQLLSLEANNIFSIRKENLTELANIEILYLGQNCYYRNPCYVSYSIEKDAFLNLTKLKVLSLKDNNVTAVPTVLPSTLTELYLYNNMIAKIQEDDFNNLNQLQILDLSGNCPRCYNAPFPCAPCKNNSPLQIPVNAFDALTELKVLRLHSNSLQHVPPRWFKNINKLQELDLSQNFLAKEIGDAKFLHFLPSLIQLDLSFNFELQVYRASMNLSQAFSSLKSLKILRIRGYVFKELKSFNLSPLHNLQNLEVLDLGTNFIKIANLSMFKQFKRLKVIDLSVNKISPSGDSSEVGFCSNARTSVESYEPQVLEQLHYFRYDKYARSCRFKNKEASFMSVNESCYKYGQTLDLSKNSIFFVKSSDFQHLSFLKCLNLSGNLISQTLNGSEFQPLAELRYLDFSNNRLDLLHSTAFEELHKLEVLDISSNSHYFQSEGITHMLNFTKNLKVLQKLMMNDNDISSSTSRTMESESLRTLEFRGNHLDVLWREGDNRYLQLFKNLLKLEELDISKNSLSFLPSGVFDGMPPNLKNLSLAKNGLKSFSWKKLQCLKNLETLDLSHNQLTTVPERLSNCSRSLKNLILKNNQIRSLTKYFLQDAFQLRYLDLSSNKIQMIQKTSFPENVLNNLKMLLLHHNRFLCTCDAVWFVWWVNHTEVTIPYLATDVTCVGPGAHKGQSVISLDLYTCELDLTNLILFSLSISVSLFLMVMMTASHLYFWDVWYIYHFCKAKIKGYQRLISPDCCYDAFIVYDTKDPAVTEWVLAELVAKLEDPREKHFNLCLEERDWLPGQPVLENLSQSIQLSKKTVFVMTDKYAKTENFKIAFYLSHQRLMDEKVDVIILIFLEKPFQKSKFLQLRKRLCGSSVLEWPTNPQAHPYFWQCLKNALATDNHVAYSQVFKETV

Legend:
human TLR8 = human TLR8 (Homo sapiens (Human), UniProt Q9NR97); assay: TLR8 inhibition reporter assay (HEK-Blue SEAP); settings: read-out: TLR8 IC50, HEK-Blue cells overexpressing human TLR8, R848 15.9 μM stimulation;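 also: SEAP driven by IFN-β minimal promoter with five NF-κB and AP-1 sites, compounds tested 0.05 nM to 50 µM, 22 h incubation, inhibition relative to agonist plus DMSO wells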
human TLR9 = human TLR9 (Homo sapiens (Human), UniProt Q9NR96); assay: TLR9 inhibition reporter assay (HEK-Blue SEAP); settings: read-out: TLR9 IC50, HEK-Blue cells overexpressing human TLR9, ODN2006 5 nM stimulation;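 also: SEAP driven by IFN-β minimal promoter carrying five NF-κB and AP-1 sites, 22 h at 37 °C, compounds 0.05 nM–50 µM, inhibition scaled between agonist-plus-DMSO and reference-inhibitor wells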
human TLR7 = human TLR7 (Homo sapiens (Human), UniProt Q9NYK1); assay: TLR7 inhibition reporter assay (HEK-Blue SEAP); type: cell-based; settings: read-out: TLR7 IC50, HEK-Blue cells overexpressing human TLR7, gardiquimod 7.5 μM stimulation

Structure (SMILES): CCN(C)C1CCC(c2ncc3[nH]c(-c4cn5ncnc5c(C)c4C)c(C(C)C)c3c2C)CC1 (stereo not drawn) [Example 143]
- IC50 (human TLR8): 31 nM
- IC50 (human TLR9): 1400 nM
- IC50 (human TLR7): 20 nM
